Source: patent publication US11674182B2, “Biomarker for HER2-positive cancer and anti-HER2 therapy and applications thereof” (INDUSTRY-UNIVERSITY COOPERATION FOUNDATION HANYANG …, priority 2017, dated 2023)

Experiments:
BT474 cells [1] = assay: Cell viability test (SRB) and colony formation assay in BT474 cells; type: cell-based, human; conditions: MEL-18-knockdown (shMEL) BT474 cells; 10 μg/ml trastuzumab, 5 days
Procedure: (§1) An in vitro toxicity test analysis kit (Sulforhodamine B based, TOX6) was purchased from Sigma-Aldrich (St. Louis, Mo., USA), and used according to the manufacturer's protocols. […] After five days, the cells were fixed by layering a TCA solution in the medium, and incubated at 4° C. for 1 hour. The fixed cells were washed with water several times, and stained with a 0.4% sulforhodamine B solution for 30 minutes. Subsequently, the stained cells were washed with a 1% acetic acid solution until remaining salts were no longer observed, and the incorporated dye was dissolved in a 10 mM Tris solution while gently stirring. The prepared plate was detected using a microplate reader at 490 nm.
After 2 weeks, the cells were fixed with a 4% formaldehyde solution for 5 minutes, washed with PBS, and stained with 0.02% crystal violet (C0775, Sigma-Aldrich) for 1 to 2 hours at room temperature and then washed again. The prepared plates were dried thoroughly, and the experiment was carried out.

SKBR3 cells = assay: Cell viability test (SRB) in SKBR3 cells; type: cell-based, human; conditions: MEL-18-overexpressing SKBR3 cells vs trastuzumab-treated control cells; 10 μg/ml
Procedure: as §1

BT474 cells [2] = assay: Orthotopic mouse xenograft model of BT474 cells; type: in vivo, NOD/SCID mice; conditions: trastuzumab 20 mg/kg intraperitoneal twice weekly
Procedure: All animal experiments were approved by the Hanyang University Animal Care and Use Committee (Seoul, Korea). Four-week-old female NOD/SCID mice were purchased from Koatech (Pyeongtaek, Gyeonggi). For orthotopic xenografts, control and MEL-18-knockdown BT474 cells (2×10^6) were resuspended in 150 uL of a 1:1 mixture of PBS/Matrigel, and directly injected into breast fat pads of the mice (left, control; right, MEL-18 shRNA). One day before the cell injection into the mice, estradiol pellets (0.72 mg, 60-day release; Innovative Research of America, Sarasota, Fla., USA) were provided. […] The tumor size was measured twice weekly, and the mice were monitored daily for clinical signs of toxicity during a treatment period.
The tumor size was calculated as follows: Volume (mm^3)=(a×b^2)/2, wherein a is the largest diameter, and b is a vertical diameter.

HCC-1954 cells = assay: Cell viability test in HCC-1954 cells; type: cell-based, human; conditions: HCC-1954 cells with trastuzumab resistance due to I3KH1047R mutation, MEL-18 overexpression
Procedure: as §1

trastuzumab
response of cells to trastuzumab (cell survival, SRB) (BT474 cells [1]): induced trastuzumab resistance | growth inhibitory effect of trastuzumab (SKBR3 cells): higher growth inhibitory effect | tumor growth response (BT474 cells [2]; MEL-18-knockdown BT474 xenograft): increased promoted tumor growth regardless of trastuzumab treatment | tumor growth response (BT474 cells [2]; control (shCon) BT474 xenograft): responded to trastuzumab | sensitivity of cells to trastuzumab (HCC-1954 cells): did not make the cells sensitive to trastuzumab
